According to paper PMC5668088, “A phase I clinical trial of binimetinib in combination with FOLFOX in patients with advanced metastatic colorectal cancer who failed prior standard therapy” (Oncotarget, 2017):

Details: MTD of 45 mg twice daily binimetinib continuous dosing

## O=C1[O][Pt]2([NH][C@@H]3CCCC[C@H]3[NH]2)[O]C1=O [Oxaliplatin]
  Difference in oxaliplatin PK with vs without binimetinib: no significant differences
